Source: ChEMBL document CHEMBL1124159, “Synthesis and structure-activity relationships of 2-sulfonamido-1,3,4,6,7,11b alpha-hexahydro-2H-benzo[a]quinolizines as alpha 2-adrenoceptor antagonists” (J Med Chem, 1988)

Chains of the proteins cited; added tags and fusions are not shown.
UniProt P22086, whole entry, looked up: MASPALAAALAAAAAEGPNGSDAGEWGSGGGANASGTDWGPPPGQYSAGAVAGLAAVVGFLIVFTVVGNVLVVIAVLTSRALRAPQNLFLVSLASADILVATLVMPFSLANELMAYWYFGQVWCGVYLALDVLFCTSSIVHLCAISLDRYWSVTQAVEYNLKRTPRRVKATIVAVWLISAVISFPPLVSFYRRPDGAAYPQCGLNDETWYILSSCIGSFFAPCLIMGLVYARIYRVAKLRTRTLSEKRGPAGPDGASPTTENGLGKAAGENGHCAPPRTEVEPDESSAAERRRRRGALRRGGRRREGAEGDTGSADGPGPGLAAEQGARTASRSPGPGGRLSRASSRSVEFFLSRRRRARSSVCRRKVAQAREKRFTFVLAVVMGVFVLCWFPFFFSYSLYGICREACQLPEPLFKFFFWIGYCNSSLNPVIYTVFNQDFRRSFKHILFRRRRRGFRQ
UniProt P19328, whole entry, looked up: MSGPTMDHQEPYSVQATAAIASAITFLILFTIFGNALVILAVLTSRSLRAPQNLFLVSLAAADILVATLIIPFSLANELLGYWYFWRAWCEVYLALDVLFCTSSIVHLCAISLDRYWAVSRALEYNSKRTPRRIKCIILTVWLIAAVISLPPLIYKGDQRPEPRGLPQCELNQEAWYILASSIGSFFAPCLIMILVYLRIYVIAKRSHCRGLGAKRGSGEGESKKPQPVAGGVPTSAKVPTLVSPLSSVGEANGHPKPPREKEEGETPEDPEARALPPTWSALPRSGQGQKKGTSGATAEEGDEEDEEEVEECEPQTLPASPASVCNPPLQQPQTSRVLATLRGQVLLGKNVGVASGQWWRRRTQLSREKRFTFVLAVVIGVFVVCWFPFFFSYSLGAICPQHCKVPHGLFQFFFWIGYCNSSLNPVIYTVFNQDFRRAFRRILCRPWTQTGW
UniProt P22909, whole entry, looked up: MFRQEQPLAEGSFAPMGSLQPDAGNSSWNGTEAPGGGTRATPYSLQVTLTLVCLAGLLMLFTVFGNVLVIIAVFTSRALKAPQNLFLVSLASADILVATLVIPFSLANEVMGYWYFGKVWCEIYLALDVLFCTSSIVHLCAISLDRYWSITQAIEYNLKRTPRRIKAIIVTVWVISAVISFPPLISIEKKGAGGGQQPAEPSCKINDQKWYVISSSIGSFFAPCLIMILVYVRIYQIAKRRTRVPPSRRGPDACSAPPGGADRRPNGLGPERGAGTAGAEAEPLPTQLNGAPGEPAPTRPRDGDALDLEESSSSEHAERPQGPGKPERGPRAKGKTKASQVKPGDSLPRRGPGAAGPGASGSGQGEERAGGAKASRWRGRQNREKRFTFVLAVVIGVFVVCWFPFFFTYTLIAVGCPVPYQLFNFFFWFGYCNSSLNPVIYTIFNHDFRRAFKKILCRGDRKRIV

target: Adrenergic receptor alpha-2 (Rattus norvegicus, UniProt P22086+P19328+P22909); test: Antagonistic activity against alpha-2 adrenergic receptor in rat vas deferens; format: functional, tissue-based

Structure (SMILES)	pA2
CC(=O)N(C)[C@@H]1CCN2CCc3ccccc3[C@@H]2C1	6.5
CC(C)CC(=O)N(C)[C@@H]1CCN2CCc3ccccc3[C@@H]2C1	6.45
COC(=O)N(C)[C@@H]1CCN2CCc3ccccc3[C@@H]2C1	7.9
CN(C(=O)c1ccccc1)[C@@H]1CCN2CCc3ccccc3[C@@H]2C1	6.62
CC(C)COC(=O)N(C)[C@@H]1CCN2CCc3ccccc3[C@@H]2C1	7.1
CCOC(=O)N(C)[C@@H]1CCN2CCc3ccccc3[C@@H]2C1	7.77
CN(C(N)=O)[C@@H]1CCN2CCc3ccccc3[C@@H]2C1	6
